In patent US20230233650A1, “NOVEL FATTY ACID MODIFIED UROCORTIN 2 DERIVATIVES AND THE USES THEREOF” (Novo Nordisk A/S, priority 2021, published 2023):

Molecular target: T1, Human CRF1 receptor (Homo sapiens, UniProt P34998)
T1 construct: host or cells: CHO-K1 (membrane preparation)
T1 sequence (P34998 24-415): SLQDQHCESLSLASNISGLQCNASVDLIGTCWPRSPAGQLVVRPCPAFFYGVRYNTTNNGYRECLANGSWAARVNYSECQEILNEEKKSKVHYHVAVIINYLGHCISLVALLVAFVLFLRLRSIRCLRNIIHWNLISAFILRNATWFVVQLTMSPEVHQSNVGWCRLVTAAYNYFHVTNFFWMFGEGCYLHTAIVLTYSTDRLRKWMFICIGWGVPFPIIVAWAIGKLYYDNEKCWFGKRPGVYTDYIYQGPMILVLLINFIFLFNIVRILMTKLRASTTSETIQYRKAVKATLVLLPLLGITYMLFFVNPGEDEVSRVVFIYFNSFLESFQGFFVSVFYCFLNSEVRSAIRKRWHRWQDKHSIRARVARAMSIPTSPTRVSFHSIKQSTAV
Experiment: CRF1 receptor CHO cell β-Arrestin recruitment assay (PathHunter)
Type: cell-based
Conditions: CHO-K1 cells, 0.1% ovalbumin
Procedure: The purpose of this investigation was to test the in vitro agonistic activity (potency) of the compounds of the invention to receptor subtype CRF1 and CRF2. […] The native, human Ucn1 and Ucn2 peptides were included as references. Assay principle: Activated G-protein coupled receptors (GPCRs) can interact with the Arrestin family of signalling proteins. The potency of peptides for CRF induced Arrestin recruitment is determined using the PathHunter Enzyme Fragment Complementation approach substantially as described in von […] et al., FASEB J., 2007, 3819, 26 and Hamdouchi et al., J. Med. Chem., 2016, 59, 10891-10916. The target GPCR is tagged with the small fragment of β-gal called ProLinkTM, a low affinity version of enzyme donor and co-expressed in cells stably expressing β-Arrestin tagged with enzyme acceptor. Activation of the GPCR stimulates binding of β-Arrestin to the ProLink-tagged GPCR, forcing complementation of ProLink and enzyme acceptor, resulting in the formation of an active β-gal enzyme. The resulting active enzyme hydrolyses substrate present in the PathHunter detection reagents to generate light. […] Plates were first incubated for 90 minutes in a 37° C., 5% CO2 incubator and then 5 μL of PathHunter detection reagent was added (DiscoveRx, 93-0001) and the plates were incubated at room temperature for 60 minutes after which the luminescence signal was measured (BMG […]). […]

CC[C@H](C)[C@H](N)C(=O)N[C@H](C(=O)N[C@@H](CC(C)C)C(=O)N[C@@H](CO)C(=O)N[C@@H](CC(C)C)C(=O)N[C@@H](CC(=O)O)C(=O)N[C@H](C(=O)N1CCC[C@H]1C(=O)N[C@H](C(=O)NCC(=O)N[C@@H](CC(C)C)C(=O)N[C@@H](CC(C)C)C(=O)N[C@@H](CCC(N)=O)C(=O)N[C@H](C(=O)N[C@@H](CC(C)C)C(=O)N[C@@H](CC(C)C)C(=O)N[C@@H](CCC(=O)O)C(=O)N[C@@H](CCC(N)=O)C(=O)N[C@@H](C)C(=O)N[C@@H](CCCNC(=N)N)C(=O)N[C@@H](C)C(=O)N[C@@H](CCCNC(=N)N)C(=O)N[C@@H](C)C(=O)N[C@@H](C)C(=O)N[C@@H](CCCNC(=N)N)C(=O)N[C@@H](CCC(=O)O)C(=O)N[C@@H](CCC(N)=O)C(=O)N[C@@H](C)C(=O)N[C@H](C(=O)N[C@H](C(=O)N[C@@H](CC(N)=O)C(=O)N[C@@H](C)C(=O)N[C@@H](CCCNC(=N)N)C(=O)N[C@H](C(=O)N[C@@H](CC(C)C)C(=O)N[C@@H](C)C(=O)N[C@@H](CCCNC(=N)N)C(=O)N[C@H](C(N)=O)C(C)C)[C@@H](C)CC)[C@@H](C)O)[C@@H](C)O)[C@@H](C)CC)[C@@H](C)CC)C(C)C)C(C)C [Compound 2]
EC50: > 10 µM
